# scFv variants of Ab-95 (light chain) against a SARS-CoV-2 spike peptide

Antigen: PDVDLGDISGINAS, a 14-residue peptide of the SARS-CoV-2 spike HR2 region.

Ab-95 is the parent antibody, in scFv form: VH, then the linker GGGGSGGGGSGGGGS, then VL. The heavy chain is unchanged in all variants.
VH: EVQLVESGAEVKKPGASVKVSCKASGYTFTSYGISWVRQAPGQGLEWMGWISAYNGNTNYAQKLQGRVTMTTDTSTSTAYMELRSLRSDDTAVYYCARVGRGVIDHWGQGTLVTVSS
VL: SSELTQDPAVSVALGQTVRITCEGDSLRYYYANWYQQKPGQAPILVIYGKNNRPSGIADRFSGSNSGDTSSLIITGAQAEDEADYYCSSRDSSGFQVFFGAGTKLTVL

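The starting antibody came from a phage panning campaign against this peptide. The library (AAYL52) carries one to three amino acid substitutions per variant, with no insertions or deletions. AlphaSeq pools MATa yeast showing the antibodies with MATalpha yeast showing the peptide. Binding brings cells together so that they mate, and sequencing counts the barcode pairs among the diploids. Each replicate has its own calibration line, from reference interactions of the BCL2 family. Mating was done three times.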

Variants are written as CDR1, CDR2 and CDR3 of the light chain (limits as in the source). Parent: EGDSLRYYYAN, GKNNRPS, SSRDSSGFQVF. Values are log10 of the apparent Kd in nM; lower means stronger binding. The mean shown is taken over the replicates in which the pair was detected. Where no diploid with the target was found in any replicate, the entry reads "no signal": below detection, most likely a poor binder, though not proof of it. Background: pairings of library AAYL52 with three empty control strains gave a value in 28% of cases (median 3.91, 5th percentile 2.90). Values in that range, when seen in few replicates, are hard to tell from nonspecific mating.

mean log10 Kd (nM) | detected | CDR-L1 | CDR-L2 | CDR-L3
2.26 | 3/3 | EGDSLRYYGAN | GKNNRPS | SSRDSSSMQVF
3.99 | 2/3 | EGDPLRYYYAN | GKNNRPS | SSKDSHGFQVF
4.66 | 2/3 | EGDSGRYYYAN | GKMNRPS | SSGDSSGFQVF
3.16 | 2/3 | EGDSLRYYYAN | GKCNRPV | SSRDISGFQVF
no signal | 0/3 | EGDSPRYYYAN | GKNNRPS | SSRMSSGIQVF
2.38 | 3/3 | ELDSQRNYYAN | GKNNRPS | SSRDSSGFQVF
4.00 | 2/3 | EGTSGRYYYAN | GCNNRPS | SSRDSSGFQVF
3.89 | 3/3 | DGDSLRYYYAN | GKNNRPS | SSRDSSRFAVF
3.94 | 1/3 | EGDSLRPYYAN | GKNNRPY | SSRDSSNFQVF
no signal | 0/3 | KGDSLRYYYAN | GKNNRPS | CSRDSSGFQWF
3.36 | 1/3 | EGDSLRYYYAN | GKNNRPS | DSRDSSGLQHF
4.23 | 1/3 | EGDSLRYYYAN | GKINRWS | SSRDPSGFQVF
3.21 | 3/3 | EGDSLRFYYAN | GKNNRPS | SSYDSAGFQVF
no signal | 0/3 | EIDSLRYCYAN | QKNNRPS | SSRDSSGFQVF
3.54 | 3/3 | EGDSRRYYYRN | GKNNRPS | SSRDSSGFQVV
3.51 | 3/3 | EGDSLRYMQEN | GKNNRPS | SSRDSSGFQVF
3.28 | 3/3 | EGDSLRYYYAN | GKNNRPN | SSRISSYFQVF
3.23 | 3/3 | EGDSLRYYYAN | GKNNRSS | SSRDSSGFQVL
1.38 | 3/3 | EGDSLRYNKAN | GKNNRPS | SSRDSSGKQVF
no signal | 0/3 | EGDSLRYYYAN | GKNNRNS | PSRDSSGFQVY
3.76 | 1/3 | EGDSLRYYYAC | GMNNRTS | SSRDSSGFQVF
4.96 | 2/3 | EGDQYRYYYAN | GKRNRPS | SSRDSSGFQVF
1.73 | 3/3 | EWDSLRYYVAN | GKNNRPS | SSRDMSGFQVF
4.01 | 2/3 | EGDSKRYYYAN | IKNNRIS | SSRDSSGFQVF
3.53 | 3/3 | EGDLLRYYYAN | GKNNRPS | SARDSRGFQVF
4.65 | 3/3 | EGCSLRYYYAN | GKNNRPV | SSRDSSGFQTF
4.03 | 1/3 | EGDSLRYYYAG | GKNNRPS | SSRDSAGFQVL
4.04 | 2/3 | EGDSLRYYYAN | GKNNFPI | CSRDSSGFQVF
4.33 | 1/3 | EGDSLRYCYAN | GKNNRPS | SSRDSSLFQVM
3.59 | 2/3 | EGDSLRYYYAN | GYNNRPS | HSRDSSGFQKF
4.90 | 2/3 | EGDSIRYYYAN | GKNNRPS | SNRDYSGFQVF
no signal | 0/3 | EGDSLRYYYAN | GFLNRPS | DSRDSSGFQVF
4.01 | 3/3 | EGDSNRYYYAN | QKNNTPS | SSRDSSGFQVF
3.92 | 3/3 | EGDSLRYVYAN | GKNNFPS | SSRDSSRFQVF
3.63 | 1/3 | EGDSDRYYYAN | GKNNRPS | SSRDSIEFQVF
3.78 | 3/3 | EGDSLRYYCAN | GKNNNPS | SSRDSSGFPVF
3.41 | 2/3 | ECDSLRYYYAN | GKNNRPS | SSRDSSGFNVF
4.58 | 1/3 | EGDSLRYYYFN | GKNNQPS | SERDSSGFQVF
3.79 | 1/3 | EGDSLRYYYAC | GKNNAPN | SSRDSSGFQVF
no signal | 0/3 | EGDSLRYYYAN | GTNNGPN | SSRDSSGFQVF
4.30 | 1/3 | EADSLRYYYAN | GKNNRPS | SSRDSSGFDDF
3.60 | 3/3 | RGDSLRYHYAN | GKNNRPS | SSRDSSRFQVF
3.86 | 1/3 | EGDSLRYYYAN | GKNNQPN | SSRDSSGFTVF
4.17 | 2/3 | EGDSLRYYYAN | WKNQRKS | SSRDSSGFQVF
3.98 | 1/3 | EMDSLRYYYAN | GKNNRNS | SSRDSSGFQVF
4.57 | 2/3 | EGDILRYYYAN | GKNARPS | SSRDSSGVQVF
2.90 | 2/3 | EGDSLRYYYAN | GDNNRPS | SSRASCGFQVF
5.17 | 1/3 | EGDSLRYYYAN | GKNNRPP | CQRDSSGFQVF
3.10 | 3/3 | EGDSSRYYYAN | GKNNRPM | SVRDSSGFQVF
no signal | 0/3 | EGDSLRYYYAN | GKNNRPS | SSRDSSWNQVR
3.21 | 3/3 | EGDWLRYYYAN | GKNQRPS | SSRDSSGFQVF
4.07 | 2/3 | EGWSLRYYYAN | GKNNYPS | SSRDNSGFQVF
4.26 | 2/3 | EGRSLCYYYAN | GKNNRPS | SSRRSSGFQVF
1.53 | 3/3 | EGDWLRYSYAN | GKNNRPS | SSRDSSYFQVF
3.30 | 2/3 | EGDSERYYYAN | GKNNRPS | SSRDSSNFQVK
no signal | 0/3 | EGDSLRYYYAN | GKNNRPS | SSLQSSGLQVF
2.60 | 3/3 | EADSLRYYMAN | GKNNRPS | SSRDKSGFQVF
3.62 | 3/3 | EGDSLFYYYAN | GKNNRPS | SSRDNSGFQVF
no signal | 0/3 | EGDVLRYYYAT | GKNNRPS | SSRDSSAFQVF
5.76 | 1/3 | EGDSLRYYYAN | GKNNRPS | STIDSSGFQVF
2.86 | 3/3 | DGDSLRYYYAN | GKNNRPS | SSRDSSAIQVF
4.03 | 2/3 | EGDYLRYYYAH | GKNNCPS | SSRDSSGFQVF
3.23 | 1/3 | EGDSLRYYYAN | GKNARPS | YSRDSSGCQVF
no signal | 0/3 | EGDSLRYYYAN | GKNNRPS | SWRDSRVFQVF
2.89 | 1/3 | EGDSLRYYYAM | GKNNRPW | SSFDSSGFQVF
4.21 | 2/3 | EGDSLRYYYAN | EKLNRPS | SSRDSSGFGVF
no signal | 0/3 | EGDNLRYYYAN | GKNNRPS | QSRDSSGFCVF
3.58 | 1/3 | EGDSARYYKAN | GKNNRPS | SSRDSSGFQVF
4.01 | 2/3 | MGDILRYYYAN | GKNNRES | SSRDSSGFQVF
no signal | 0/3 | EGDSERYYYAN | GKNCRPS | SSRDSPGFQVF
no signal | 0/3 | EGNSLRYYYAN | SKNNRPS | SSRDSSAFQVF
1.77 | 1/3 | EGDSLRYYYAN | KKNNRPS | SSRSSSSFQVF

Extract of 7 entries:

CDR-L1 | CDR-L2 | CDR-L3 | mean log10 Kd (nM) | detected
EGDSLRYYGAN | GKNNRPS | SSRDSSSMQVF | 2.26 | 3/3
EWDSLRYYVAN | GKNNRPS | SSRDMSGFQVF | 1.73 | 3/3
EGDSLRYYYAC | GMNNRTS | SSRDSSGFQVF | 3.76 | 1/3
EGDSLRYYYAN | GKINRWS | SSRDPSGFQVF | 4.23 | 1/3
EGTSGRYYYAN | GCNNRPS | SSRDSSGFQVF | 4.00 | 2/3
EGDSLRYYYAC | GKNNAPN | SSRDSSGFQVF | 3.79 | 1/3
EGDSLRYYYAN | GKCNRPV | SSRDISGFQVF | 3.16 | 2/3

The measurements come from Engelhart et al. 2022 (doi:10.1038/s41597-022-01779-4) through the FLAb antibody collection.